US12357619B2, “Noradrenergic and specific serotonergic anxiolytic and antidepressant, method for the production and use thereof” (ALLA CHEM, LLC, priority 2020, dated 2025)

By UniProt entry, the sequences of proteins in these tests, tags left out.
UniProt P35367, whole entry: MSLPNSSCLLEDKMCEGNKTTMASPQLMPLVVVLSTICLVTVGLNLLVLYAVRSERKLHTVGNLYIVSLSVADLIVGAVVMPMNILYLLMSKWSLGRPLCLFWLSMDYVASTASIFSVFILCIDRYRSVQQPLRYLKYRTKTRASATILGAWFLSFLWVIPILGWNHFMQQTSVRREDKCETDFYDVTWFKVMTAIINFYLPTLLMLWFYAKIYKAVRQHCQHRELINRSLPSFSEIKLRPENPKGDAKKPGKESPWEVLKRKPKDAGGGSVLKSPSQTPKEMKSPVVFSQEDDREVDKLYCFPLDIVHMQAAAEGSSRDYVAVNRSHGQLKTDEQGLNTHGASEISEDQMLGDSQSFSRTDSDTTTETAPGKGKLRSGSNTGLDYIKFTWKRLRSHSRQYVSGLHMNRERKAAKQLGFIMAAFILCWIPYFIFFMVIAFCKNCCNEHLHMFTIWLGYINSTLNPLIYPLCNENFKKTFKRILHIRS

Target: Histamine H1 (Homo sapiens, UniProt P35367)
Experiment: Receptor activities, Ki (Table 1)
Type: binding

## Cc1ccc2c(c1)c1c(n2CCc2ccccc2)CCN(C)C1.Cl [A•HCl, 2,8-dimethyl-5-(2-phenylethyl)-2,3,4,5-tetrahydro-1H-pyrido[4,3-b]indole hydrochloride]
  Ki: 0.58 nM
